# Test: Conductivity (EPA method 120.1)
# Format: physicochemical
# Settings: samples diluted with de-ionized water; Example materials 1% by volume in water
smiles,measurement,value
"O=S(=O)(O)O [Dilute sulfuric acid, sulfuric acid]",Conductivity,556 mS/cm
